What all share (assay type): cell-based, human
In one assay the test system is MU89 melanoma cells. Description: Tumor cell/T cell co-culture IL-2 ELISA (Melan-A/MART-1 specific TCR Jurkat line J-TCR-M1 as responder). The source says:
The assay relies on the use of an antigen-specific responder T cell line. […] The chosen TCR reacts specifically to a Melan-A/MART-1 decapeptide (26[…]35) presented by HLA-A2, with appropriate triggering of T cell activation. We then used a lentiviral vector system for transduction of this specific TCR into the J.RT3-T3.5 T cell line, a Jurkat cell derivative which fails to express endogenous surface TCR through a mutation in its beta chain.
(§1) We evaluated several candidate melanoma cell lines for the ability to stimulate the J-TCR-M1 cell line. Levels of Melan-A/MART-1 (determined by intracellular staining and flow cytometry) and corresponding levels of induced IL-2 (determined by coculture with J-TCR-M1 and IL-2 ELISA) were tested for different melanoma cell lines.
The 480 compounds were tested in six parallel 96 well plates. The first two columns (16 wells) of each plate were used for standards (8 wells), untreated controls (4 wells), and positive controls (4 wells). The other ten columns (80 wells) were used for testing compounds in separate wells. […]
The protocol for evaluation of the cytokine IL-2 was performed using a the BD OptEAI kit, human IL-2 ELISA set from BD Biosciences (San Diego, Calif.) following the manufacturer's recommendations. The absorbance 450 nm was read in a BioRad 3550 plate reader. […] IL-2 levels for experimental samples (pg/ml) were calculated from the standard curve. […]
On the technique in general: In an ELISA, binding on a coated surface is turned into a signal by an enzyme label.

The next assay relates to 453A melanoma cells. Description: Tumor cell/T cell co-culture IL-2 ELISA (MART-1 TCR Jurkat cells). As to conditions: IFN-β 5000 IU/ml for three days. The protocol: as §1
(§2) Melanoma cells were treated with hits from the primary screen for three days prior to counting and plating for the coculture assay (cells were washed and resuspended in fresh medium that no longer contained the treatment agents during the co-culture). A100 μl volume of 5×10^5 cells/ml tumor cells were mixed with 50 μl of […] T cells in a 96-well V-bottom plate and incubated overnight (16-24 hours). Plates were centrifuged to pellet the cells and 100 μl of supernatant fluid was removed from each well for cytokine assay. To assess antigen-specific T cell responses, a final concentration of 3.33 μg/ml Melan-A/MART-1 peptide (26[…]35 (A27L from wild type)) was added to the co-culture.
(§3) The protocol for evaluation of the cytokine IL-2 was performed using a the BD OptEAI kit, human IL-2 ELISA set from BD Biosciences (San Diego, Calif.) following the manufacturer's recommendations. The absorbance 450 nm was read in a BioRad 3550 plate reader. A standard curve using known concentrations of IL-2 (from 500 to 8 pg/ml) was included in each ELISA plate. IL-2 levels for experimental samples (pg/ml) were calculated from the standard curve.

The subject of the next assay is A375 melanoma cells. The description is as above. The settings on record: IFN-β 5000 IU/ml for three days. The procedure: as §1, §2, §3
In another assay the test system is H59-44T melanoma cells. Described as above. The settings on record: IFN-β 5000 IU/ml for three days. The protocol: as §1, §2, §3
The test system of another assay is MALME-3M melanoma cells. The description is as above. The settings on record: IFN-β 5000 IU/ml for three days. The protocol: as §1, §2, §3
The subject of another assay is MUX melanoma cells. Described as above. As to conditions: IFN-β 5000 IU/ml for three days. The procedure: as §1, §2, §3
The test system of the next assay is MU89 melanoma cell line. Description: Antibody staining and flow cytometry (intracellular Melan-A/MART-1, gp100, TRP-2; surface MHC Class I/II). The protocol: Cells were fixed with 1% formaldehyde, permeabilized with 0.1% saponin, stained with monoclonal antibodies to melanocyte antigens. Antibodies were obtained with specificity for: MART-1 from Vector Labs (Burlingame, Calif.); gp100 HMB45 from DakoCytomation (Carpinteria, Calif.) and then visualized with goat anti-mouse FITC-conjugated secondary antibody from Invitrogen (Fredrick, Md.). The level of EGFP was determined by flow cytometry of unfixed cells that were washed and resuspended in 1×PBS.
Cells were plated at a density of 1×10^5 in 1 ml of medium in a 24-well plate and cultured for varying times as indicated in results. Typically, 3 days of culture in the presence of Hsp90 inhibitors was optimal for the functional studies performed. After incubation, cells were collected by trypsinization and then evaluated by flow cytometry.
Intracellular staining and flow cytometric analyses of cytoplasmic Melan-A/MART-1, and gp100 expression were performed as described previously. Cells were fixed with 1% formaldehyde, permeabilized with 0.1% saponin, stained with monoclonal antibodies to melanocyte antigens. Antibodies were obtained with specificity for: Melan-A/MART-1 from Vector Labs (Burlingame, Calif.); gp100/HMB45 from DakoCytomation (Carpinteria, Calif.) and then visualized with goat anti-mouse FITC-conjugated secondary antibody from Invitrogen (Frederick, Md.). The level of EGFP was determined by flow cytometry of unfixed cells washed and resuspended in 1×PBS. Surface staining of MHC Class I was carried out using the antibody W6/32 on cells harvested with Cell Stripper from MediaTech Inc. (Manassas, Va.) and carried out on ice.
Cell were seeded at 1×10^6 cells in a T25 flask with 10 ml of media for the 4 day IFN-beta pre-treatments. Cells were then harvested and plated in 24 well plate at 1×10^5 cells per well in 1 ml of media for 3 day treatments.
For surface staining of HLA Class I and II antigens, cells were harvested using CellStripper™ from Mediatech (Manassas, Va.). All staining steps were performed on ice. Following a first incubation with antibody to Class I (W6/32) or Class II (L243) for 30 minutes. Stained cells were washed twice with cold PBS and then stained with a goat anti-mouse FITC secondary antibody to allow for quantitative analysis by flow cytometry. For evaluation of cytoplasmic antigens, including Melan-A/MART-1 and gp100, cells were first fixed in paraformaldehyde and permeabilized with saponin as previously described. Staining for cytoplasmic antigens was carried out at room temperature (22° C.).
Background: Flow cytometry measures light scatter and fluorescence of single cells or particles in a stream.

Where [1] appears, read: MU89, IFN-β 5000 IU/ml for three days.
The mark [2] stands for this setting: MU89, 3 days, IFN-beta 5000 Units/ml, 17-AEP 1.0, PU-H71 0.3, CCT018159 10.0 μg/ml.
The mark [3] stands for this setting: MU89, three days, IFN-β 5000 Units/ml, IFN-γ 100 ng/ml, PU-H71 0.3 mg/ml.

B1: IFN-β: IFN-β-1a (Avonex) obtained from Biogen-Idec; SEQ ID NO: 1 (protein, listed as Homo sapiens)
chain: MSYNLLGFLQRSSNFQCQKLLWQLNGRLEYCLKDRMNFDIPEEIKQLQQFQKEDAALTIYEMLQNIFAIFRQDSSSTGWNETIVENLLANVYHQINHLKTVLEEKLEKEDFTRGKLMSSLHLKRYYGRILHYLKAKEYSHCAWTIVRVEILRNFYFINRLTGYLRN
modifications: (1)..(166) IFN-beta-1a
In the case of B1, the “IL-2 after coculture with MART-1 TCR Jurkat cells” value came out at 96 pg/mL in the assay on MU89 melanoma cells (setting [1]); 159 pg/mL in the assay on 453A melanoma cells; 7 pg/mL in the assay with A375 melanoma cells; 23 pg/mL with H59-44T melanoma cells; 289 pg/mL with MALME-3M melanoma cells; 12 pg/mL with MUX melanoma cells. Moreover, the “Increase of IL-2 levels on co-culture with Jurkat MART-1 TCR cell line” value with MU89 melanoma cells (MU89 treated with single agent (FIG. 9)) is recorded as 2 fold. Besides, in the assay on MU89 melanoma cell line (setting [2]), the “Class I, fold increase relative to untreated control” value is recorded as 2.8 fold. In addition, in the assay with MU89 melanoma cell line (setting [2]), the “Class I, geometric mean of surface staining (W6/32)” value worked out at 51. Besides, the “MART-1, fold increase relative to untreated control” value with MU89 melanoma cell line (setting [2]) came out at 1.8 fold. The “MART-1, geometric mean of intracellular staining” value with MU89 melanoma cell line (setting [2]) is 59. Besides, in the assay with MU89 melanoma cell line (setting [2]), the “TRP-2, fold increase relative to untreated control” value came out at 1.6 fold. Moreover, the “TRP-2, geometric mean of intracellular staining” value with MU89 melanoma cell line (setting [2]) stood at 150. In the assay with MU89 melanoma cell line (setting [2]), the “gp100, fold increase relative to untreated control” value is 1.1 fold. Besides, in the assay with MU89 melanoma cell line (setting [2]), the “gp100, geometric mean of intracellular staining” value came out at 140. For the same molecule, the “MHC Class I, geometric mean of surface staining (W6/32)” value with MU89 melanoma cell line (MU89, 4 day IFN-β pre-treatment (5000 Units/ml), then 3 days with fresh IFN-β and the labelled HSP90 inhibitor (label IFN-β: no inhibitor), 17-AEP 1, PU-H71 0.3, CCT018159 10 mg/ml) was determined as 115; in the assay with MU89 melanoma cell line (MU89, 4 day IFN-β pre-treatment (5000 Units/ml), then 3 days without IFN-β with the labelled HSP90 inhibitor (label IFN-β: no inhibitor), 17-AEP 1, PU-H71 0.3, CCT018159 10 mg/ml) it was 36; with MU89 melanoma cell line (MU89, single agent for 3 days, no IFN-β pre-treatment, IFN-β 5000 Units/ml), 83; in the assay with MU89 melanoma cell line (MU89, three days, IFN-β 5000 Units/ml), 51; with MU89 melanoma cell line (setting [3]) it was 245. Further, the “MART-1, geometric mean of intracellular staining using anti-MART-1” value with MU89 melanoma cell line (setting [1]) came to 153. In the assay on MU89 melanoma cell line (setting [3]), the “MHC Class II, geometric mean of surface staining (L2443)” value is 14. Also, in the assay with MU89 melanoma cell line (MU-89, single agent), the “L243 (MHC Class II surface staining)” value is recorded as 2.8. Further, in the assay with MU89 melanoma cell line (MU-89, single agent), the “W6/32 (MHC Class I surface staining)” value was 151.3.

The values above are taken from patent publication US20140335050A1, “METHODS, COMPOSITIONS, AND KITS FOR THE TREATMENT OF CANCER” (The General Hospital Corporation, priority 2011, published 2014).
